From article PMC6614423, “Noxa mitochondrial targeting domain induces necrosis via VDAC2 and mitochondrial catastrophe” (Cell Death & Disease, 2019)
Residues, ends and D or L forms follow the SMILES beside them. *: point of attachment. Cbz = O=C(OCc1ccccc1)*; CH2F = FC*

Test system: HeLa cells
Assay: MTS cell viability assay
Conditions: HeLa cells treated with eMTDΔ4 in the presence of the inhibitor (Fig. 1d-f, Extended Data Fig. 1b)

Row | Structure (SMILES) | inhibition of eMTD∆4-induced cell death by cell death inhibitor
1 | COC(=O)C[C@H](NC(=O)[C@H](C)NC(=O)[C@@H](NC(=O)OCc1ccccc1)C(C)C)C(=O)CF [zVAD-fmk, reference compound] (Cbz-Val-Ala-Asp(OMe)-CH2F) | not inhibited
2 | CN1C(=O)C(Cc2c[nH]c3ccccc23)NC1=S (stereo not shown) [Necrostatin-1, reference compound] | not inhibited
3 | CO/C1=C\C(C)=C\[C@@H](C)[C@@H](O)[C@@H](C)C/C(C)=C/C=C/[C@H](OC)[C@@H]([C@@H](C)[C@@H](O)[C@H](C)[C@@]2(O)C[C@@H](O)[C@H](C)[C@@H](C(C)C)O2)OC1=O [Bafilomycin A1, reference compound] | not inhibited
4 | CC(C)S(=O)(=O)c1ccc2nccc(Nc3ccc4scnc4c3)c2c1 [GSK 872, reference compound] | not inhibited
